Ab-14 heavy chain CDR variants: yeast mating affinities

Reference: Engelhart et al. 2022, doi:10.1038/s41597-022-01779-4. File: FLAb, binding data.

Target: peptide PDVDLGDISGINAS, taken from heptad repeat 2 (HR2) of SARS-CoV-2 spike.

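The parent was found by panning a naive human phage display library on the peptide. In library AAYL49, one, two or three CDR residues were substituted; doubles and triples were drawn at random. The assay is AlphaSeq: two haploid yeast populations carry antibody and antigen on their surface. The frequency of each diploid, read from paired DNA barcodes, reflects how well the two displayed proteins bind. A regression on co-assayed BCL2-family reference pairs converts the normalised counts of each replicate to an apparent Kd. Mating was done three times.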

Each scFv is VH, a 15-residue (Gly4Ser)3 linker, VL, as in the parent Ab-14, and differs from it in the CDRs of the heavy chain only.
VH: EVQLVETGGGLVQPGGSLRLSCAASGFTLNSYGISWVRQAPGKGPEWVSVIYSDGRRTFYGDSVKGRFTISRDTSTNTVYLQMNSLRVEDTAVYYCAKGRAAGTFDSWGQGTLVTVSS
VL: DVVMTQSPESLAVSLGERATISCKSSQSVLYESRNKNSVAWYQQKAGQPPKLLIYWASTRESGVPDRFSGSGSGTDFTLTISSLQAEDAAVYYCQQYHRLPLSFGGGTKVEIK

Substitutions are numbered in sequence along the VH above, starting at 1 (not Kabat). Every variant below is changed at G33 of the VH (sequential numbering). The Kd shown is the geometric mean over detected replicates; a lower Kd is a better binder. A pair that was not seen in any replicate is written "nd"; this usually means weak binding, but a binder can also be missed. Order: sorted from the lowest average up, undetected variants last. As a blank, each scFv also met three strains without target: over library AAYL49, 15% of these pairings were detected, typically at 11 µM and seldom below 680 nM.

For G33R/S35N/K65M, the assay gave 1.3 µM (2 of 3 replicates). For L29E/S31C/G33W, the assay gave 2.1 µM (1 of 3 replicates). With G33P/S35C/T58S the result was 2.9 µM (1 of 3 replicates). The variant L29W/G33Y/S53V gave 2.9 µM (1 of 3 replicates). For G26M/G33S/A102W, the assay gave 4.8 µM (1 of 3 replicates). The variant F27G/G33H/R100I showed 5.1 µM (1 of 3 replicates). For S31N/G33V/T58L, the assay gave 5.3 µM (1 of 3 replicates). For G33I/T58N/A101C, the assay gave 5.8 µM (1 of 3 replicates).

For S31T/G33D/Y52I, the assay gave 5.8 µM (2 of 3 replicates). The variant F27M/G33D/S63I gave 7.0 µM (1 of 3 replicates). The variant T28R/G33H/T104I showed 8.1 µM (2 of 3 replicates). With G33E/R56D/R100P the result was 9.6 µM (2 of 3 replicates). With L29P/G33E/G103V the result was 12 µM (2 of 3 replicates). For G33H/Y52R/S107I, the assay gave 15 µM (1 of 3 replicates). With L29M/G33E/T58H the result was 21 µM (3 of 3 replicates). The variant G33M/G103E/S107I showed 30 µM (1 of 3 replicates).

The variant G33C/Y60P/T104D showed 55 µM (1 of 3 replicates). For G33I/S53M/F59E, the assay gave 66 µM (2 of 3 replicates). For G33C/V64A/S107V, the assay gave 74 µM (1 of 3 replicates). The variant G33P/S53E gave 77 µM (2 of 3 replicates). For G33L/A102G/F105G, the assay gave 83 µM (1 of 3 replicates). The variant G33C/I51P showed 150 µM (1 of 3 replicates). With G33C/I51P/R57D the result was nd (0 of 3 replicates). The variant N30A/G33I/F105T gave nd (0 of 3 replicates).

For N30W/S31W/G33T, the assay gave nd (0 of 3 replicates). For G33C/G55R/G103N, the assay gave nd (0 of 3 replicates). For T28A/G33M/F59T, the assay gave nd (0 of 3 replicates). The variant G33T/G55N/A101F gave nd (0 of 3 replicates). For G33M/G55V/D62S, the assay gave nd (0 of 3 replicates). The variant T28Y/L29N/G33T showed nd (0 of 3 replicates). For G33H/Y60Q/A101V, the assay gave nd (0 of 3 replicates). The variant G33C showed nd (0 of 3 replicates).

With F27E/G33Q/A102I the result was nd (0 of 3 replicates). For G33C/D54C, the assay gave nd (0 of 3 replicates). With G33P/T58E/Y60E the result was nd (0 of 3 replicates). With G33T/I34C/S63G the result was nd (0 of 3 replicates). With G33F/T58N/G61Q the result was nd (0 of 3 replicates). With G33S/S35T/S63Q the result was nd (0 of 3 replicates). The variant G33T/G55D/F59I gave nd (0 of 3 replicates). With T28E/G33P/S107Q the result was nd (0 of 3 replicates).

The variant G33N/V50Y/V64A showed nd (0 of 3 replicates). The variant T28L/G33N/G103K gave nd (0 of 3 replicates). The variant G33Q/S53M/T104R showed nd (0 of 3 replicates). The variant L29M/G33V/A102C showed nd (0 of 3 replicates). The variant G33I/V50T/Y60P gave nd (0 of 3 replicates). The variant G33V/T58R/G99K showed nd (0 of 3 replicates). For G33W/Y52Q/G103S, the assay gave nd (0 of 3 replicates).